In PMC4893628, “Chalcone-based Selective Inhibitors of a C4 Plant Key Enzyme as Novel Potential Herbicides” (Scientific Reports, 2016):
Where two headings read alike, the source gives them in different places.

Assays:
A. retroflexus = experiment: Hyperspectral imaging (ARI, PRI), A. retroflexus; format: in vivo, Amaranthus retroflexus; conditions: two days after treatment, 3rd leaf, six replicates
human telomerase = target: human telomerase; parameters: method as in PMID 15588081; conditions: higher; cited from earlier work
F. trinervia PEPC = target: T1, F. trinervia PEPC (Flaveria trinervia, UniProt P30694); format: biochemical; conditions: C4 PEPC over C3 isoform
T1 construct: the full-length ppcA gene of PEPC from F. trinervia (EMBL-Bank X61304); made in house; host or cells: Escherichia coli BL21(DE3)
T1 sequence (P30694 1-966): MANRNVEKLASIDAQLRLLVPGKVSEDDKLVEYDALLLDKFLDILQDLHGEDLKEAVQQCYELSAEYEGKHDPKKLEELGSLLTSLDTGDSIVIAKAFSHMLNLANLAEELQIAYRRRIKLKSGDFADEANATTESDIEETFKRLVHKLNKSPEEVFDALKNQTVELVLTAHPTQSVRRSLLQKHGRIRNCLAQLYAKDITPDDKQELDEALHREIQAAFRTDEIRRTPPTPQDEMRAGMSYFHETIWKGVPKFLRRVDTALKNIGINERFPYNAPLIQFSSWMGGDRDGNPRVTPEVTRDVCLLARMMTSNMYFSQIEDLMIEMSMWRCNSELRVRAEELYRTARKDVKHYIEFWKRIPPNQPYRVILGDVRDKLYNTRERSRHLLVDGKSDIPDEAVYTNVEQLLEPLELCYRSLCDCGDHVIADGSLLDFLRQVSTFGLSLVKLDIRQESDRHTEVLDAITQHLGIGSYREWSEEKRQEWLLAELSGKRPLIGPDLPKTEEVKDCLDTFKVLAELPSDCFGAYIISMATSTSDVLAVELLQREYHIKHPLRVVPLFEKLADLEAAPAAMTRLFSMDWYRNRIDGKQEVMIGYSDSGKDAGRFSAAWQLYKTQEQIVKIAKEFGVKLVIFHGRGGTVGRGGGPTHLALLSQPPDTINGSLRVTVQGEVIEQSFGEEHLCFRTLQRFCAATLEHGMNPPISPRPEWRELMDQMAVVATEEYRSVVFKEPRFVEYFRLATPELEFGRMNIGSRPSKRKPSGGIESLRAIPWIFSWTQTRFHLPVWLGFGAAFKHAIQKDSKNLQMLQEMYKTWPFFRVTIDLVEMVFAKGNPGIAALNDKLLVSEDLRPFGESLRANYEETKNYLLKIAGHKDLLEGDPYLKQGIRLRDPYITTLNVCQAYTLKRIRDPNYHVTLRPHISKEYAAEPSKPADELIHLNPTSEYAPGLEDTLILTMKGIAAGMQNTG
Procedure: The IC50 values of small molecule compounds on F. pringlei and F. trinervia PEPCs were determined using PEPC coupled spectrophotometric assay. The amount of NADH oxidized by NADH-malate dehydrogenase was measured by the decrease in absorbance at 340 nm in a Beckman DU-800 spectrophotometer, thus the value is in proportion to the corresponding substrate conversion of the enzyme. […] The reactions were started by adding two folds of the Km value of PEP for each enzyme. The data were analyzed using GraFit (Erithacus Software, UK).

[1] = target: T2, wild-type C4 PEPC from F. trinervia (Flaveria trinervia, UniProt P30694); experiment: Isothermal titration calorimetry, wild-type C4 PEPC; format: binding; conditions: ITC, in the presence of 17 mM aspartate; listed as Okanin
T2 construct: the full-length ppcA gene of PEPC from F. trinervia (EMBL-Bank X61304); made in house; host or cells: Escherichia coli BL21(DE3)
T2 sequence (P30694 1-966): T1 sequence (P30694 1-966)
Procedure: The binding affinities between small molecule compounds and PEPC enzymes were measured using a MicroCal iTC200 calorimeter (GE Healthcare). 18 injections (2 μl each) of 200 μM compound were injected into a sample cell containing 20 uM PEPC at 25 °C. The buffer of the compounds and the enzymes contained 50 mM Tris/HCl pH 7.5, 150 mM NaCl, 10 mM MgCl2. The data were analyzed with one-site-binding fitting using Origin software (MicroCal Inc.) to calculate the dissociation constant (Kd) of the small molecule inhibitors.

O=C(/C=C/c1ccc(O)c(O)c1)c1ccc(O)c(O)c1O [Compound 12, 2′,3′,4′,3,4-Pentahydroxy-chalcone]
anthocyanin reflectance index (ARI) (A. retroflexus): significantly increased
photochemical reflectance index (PRI) (A. retroflexus): significantly reduced
IC50 on human telomerase relative to IC50 for inhibition of C4 PEPC (human telomerase): ~ 10 fold
Selectivity C4/C3 (F. trinervia PEPC): 45 fold
Selectivity C4/C3 (F. trinervia PEPC; listed as 2′,3′,4′,3,4-Pentahydroxychalcone): 15–45 fold
Kd / binding [1]: not detected
